Test results as given in ChEMBL document CHEMBL4673253, “Discovery of EST73502, a Dual μ-Opioid Receptor Agonist and σ Receptor Antagonist Clinical Candidate for the Treatment of Pain” (J Med Chem, 2020).

Protein sequences, listed by entry. Tags and fused reporters are not part of them.
UniProt Q99720, whole entry: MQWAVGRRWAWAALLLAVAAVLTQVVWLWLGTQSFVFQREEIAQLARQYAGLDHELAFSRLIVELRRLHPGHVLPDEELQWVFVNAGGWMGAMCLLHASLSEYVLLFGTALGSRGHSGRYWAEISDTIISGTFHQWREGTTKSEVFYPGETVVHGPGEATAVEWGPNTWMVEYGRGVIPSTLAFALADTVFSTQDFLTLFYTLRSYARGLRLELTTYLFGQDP

Target: Sigma non-opioid intracellular receptor 1 (Homo sapiens, UniProt Q99720)
Test: Displacement of 3H](+)-pentazocine from human sigma1 receptor expressed in HEK293 cell membranes incubated for 120 mins by liquid scintillation counting method
Parameters: species or system Cell membrane

Compound C[C@H]1OC2(CCN(CCc3ccccc3)CC2)CN(C2CC2)C1=O has a Ki of 58 nM.
